Assay results taken from ChEMBL document CHEMBL2169781, “Discovery and biological evaluation of a novel class of dual microsomal prostaglandin E2 synthase-1/5-lipoxygenase inhibitors based on 2-[(4,6-diphenethoxypyrimidin-2-yl)thio]hexanoic acid” (J Med Chem, 2011).

Molecular target: T1, Polyunsaturated fatty acid 5-lipoxygenase (Homo sapiens) (UniProt P09917)
T1 sequence (whole entry): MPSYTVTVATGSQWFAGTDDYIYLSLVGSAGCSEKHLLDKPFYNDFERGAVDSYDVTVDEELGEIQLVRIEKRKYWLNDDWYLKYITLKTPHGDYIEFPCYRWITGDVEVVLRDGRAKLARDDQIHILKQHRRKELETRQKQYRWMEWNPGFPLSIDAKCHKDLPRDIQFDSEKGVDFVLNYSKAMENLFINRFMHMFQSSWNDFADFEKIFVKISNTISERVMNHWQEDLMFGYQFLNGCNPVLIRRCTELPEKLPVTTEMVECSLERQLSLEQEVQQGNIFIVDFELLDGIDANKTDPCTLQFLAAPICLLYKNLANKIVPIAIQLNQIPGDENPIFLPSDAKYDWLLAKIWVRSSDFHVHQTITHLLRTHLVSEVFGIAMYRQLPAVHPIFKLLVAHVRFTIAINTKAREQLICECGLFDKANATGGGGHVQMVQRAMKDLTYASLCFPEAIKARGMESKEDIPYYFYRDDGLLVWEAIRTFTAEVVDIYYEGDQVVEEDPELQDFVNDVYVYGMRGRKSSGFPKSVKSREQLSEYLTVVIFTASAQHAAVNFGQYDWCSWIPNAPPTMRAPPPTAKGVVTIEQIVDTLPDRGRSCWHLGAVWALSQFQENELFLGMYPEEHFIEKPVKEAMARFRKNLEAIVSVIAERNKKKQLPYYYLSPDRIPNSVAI
Assay: Inhibition of human recombinant 5-lipoxygenase-mediated product formation from arachidonic acid assessed as remaining activity at 10 uM after 5 to 10 mins by HPLC analysis
Procedure, shortened: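 Human 5-LO expressed in E. coli BL21 (pT3-5LO) at 37 °C, purified and used at once. Enzyme (0.5 μg/mL in PBS/EDTA with 1 mM ATP) preincubated with compound 5–10 min at 4 °C, prewarmed 30 s at 37 °C, started with 2 mM CaCl₂ + 20 μM AA (±1 μM 13(S)-HpODE), 10 min at 37 °C, stopped with cold methanol, products by HPLC.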

## CCCCC(Oc1cc(OCCc2ccccc2)cc(OCCc2ccccc2)c1)C(=O)O (stereo unspecified)
  Activity: 60%
